## Apparent affinities of Ab-14 variants for a coronavirus HR2 peptide

The measurements come from Li et al. 2023 (doi:10.1038/s41467-023-39022-2) through the FLAb antibody collection.

Binding partner: SARS-CoV-2 spike HR2 peptide, sequence PDVDLGDISGINAS.

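The starting antibody came from a phage panning campaign against this peptide. These sequences belong to a second round, designed from the earlier measurements on random variants of the parent. Several design methods are mixed in this list. The scFvs were displayed on barcoded MATa yeast, the peptide on MATalpha yeast. Pairs that bind mate more often; barcode pairs of the diploids are counted by sequencing. Scores were corrected for input abundance and mapped to Kd with protein pairs of known affinity run in the same pool. Mating was done six times.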

Parent: Ab-14, a human scFv built as VH, a (GGGGS)3 linker, VL. Only the CDRs of the light chain vary.
VH: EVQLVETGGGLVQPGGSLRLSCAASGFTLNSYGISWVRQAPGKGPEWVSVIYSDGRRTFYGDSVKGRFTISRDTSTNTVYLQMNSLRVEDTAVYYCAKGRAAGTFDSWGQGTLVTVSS
VL: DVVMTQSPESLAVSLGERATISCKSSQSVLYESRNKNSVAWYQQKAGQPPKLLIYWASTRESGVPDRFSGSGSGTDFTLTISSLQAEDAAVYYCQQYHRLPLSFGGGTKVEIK

Each variant is given by its three light chain CDRs, as the data file delimits them; those of the parent are KSSQSVLYESRNKNSVA, WASTRES, QQYHRLPLS.
Variants here have more than six changes.
Values are log10 of the apparent Kd in nM; lower means stronger binding.
Averages over replicates are reported, and they cover detected replicates only.
"nd" means that the variant was in the library but no mating with the target was seen in any replicate; the authors take this as a sign of poor binding, and no number exists.
Three control strains display no target. For all light chain designs, 4% of the pairings with them gave a signal, with a median of 2.64 and one signal in twenty below 1.59, so weak values seen in few replicates may be background.
Of ten entries with the parent sequence, four were seen in most replicates (averages 0.34 to 2.37), three in one and three in none, so single entries are noisy.
In the paper, a design with two or fewer of six values counts as a poor binder.
Values of this round are not directly comparable with the first-round values of the same sequences.

LLQQDFYNERNQANAVA / DGNQLAS / QDYARLPLV: 0.47 (6 of 6 replicates).
KLPLATMQEMVSKNNVA / ELSTRGS / QQYHRLPLS: 0.13 (5 of 6 replicates).
SFSQSVLYESVHRNNVA / QTSTRES / QQYDHLPLS: 0.60 (6 of 6 replicates).
KLMMLGDYESRNKNSVA / QASQREQ / QQYHRLPLS: -0.11 (6 of 6 replicates).
KVSPSWLYEDRNWNSVA / QASCRES / QQYHRLPLS: 0.83 (6 of 6 replicates).
KITQMVNGESHNKNSIA / QMTTREG / QQYHRLPLS: 1.13 (6 of 6 replicates).
AISFEMMSPHNHSNNVA / SESKRCS / QQYFTLPLS: 1.52 (6 of 6 replicates).
IVSQLMLWGLHAKNSIA / EAEMRTN / QQYDRLPLF: nd (0 of 6 replicates).
TIDDEMPNHGFHWNSIA / GVATVLQ / QQYDRLPLS: 2.58 (5 of 6 replicates).
MLSMVADISSKNRNSVA / EMTTREK / QQYDRLPLI: 0.40 (3 of 6 replicates).
KISQSVEYQQRNQNSVA / SASTRLS / QQYHRLPLS: 0.51 (6 of 6 replicates).
KIMQSLNYMQFNVSNVA / GQETRER / QSYHRLPLS: 2.33 (6 of 6 replicates).
ALELEEMQMMKDINSIA / NTEYKTR / QQYVRLPIS: 1.30 (6 of 6 replicates).
KLRNEAIGWNRNEWSIA / DEHYRGD / QQYFHLPLL: 1.24 (2 of 6 replicates).
MISQLYNMGQFAINSVA / QAEIRNE / QQYDRLPLI: 0.97 (6 of 6 replicates).
KMHTLMYTANIGENSVA / DANLHVD / QQYFRLPIS: 1.22 (6 of 6 replicates).
TGNVSLAQGVHEMNNVA / DGDQKLD / QQYYRLPLA: 0.71 (6 of 6 replicates).
KFGQMVLTGSYVSNSVA / QSSTREN / QQYHRLPLS: -0.07 (6 of 6 replicates).
VFQQQWDGHTLTNSSVA / NVDERME / QQYYRLPLM: 0.32 (6 of 6 replicates).
KIYSMTGFQSRNADSIA / DNSTRGR / QQYHRLPLS: 1.89 (6 of 6 replicates).
HISPMQAYAYEAKNSVA / DTETKLN / QQYIRLPLS: 1.22 (6 of 6 replicates).
IITQSVMQESRNKRNVA / NTSEREP / QQYDRLPLI: 1.14 (6 of 6 replicates).
KVEQSMDYESRNVNSVA / NASQRLK / QQYHRLPLS: 0.67 (6 of 6 replicates).
KAQWLWPYWSRNWNSVA / NASYREQ / QQYHRLPLS: 0.14 (6 of 6 replicates).
KFSQGNLYEDRNQNSVA / NASQRLQ / QDYHRLPLS: 0.67 (6 of 6 replicates).
TLSQSMDMTSRNVNSVA / DLQTRGN / QQYHRLPLS: 0.62 (6 of 6 replicates).
KLYMMTGYESRNADSIA / DNSTRGR / QQYHRLPLS: 1.77 (5 of 6 replicates).
KSDQEQLYENRMKNSVA / DASLRES / QQYHRLPLS: -0.04 (6 of 6 replicates).
TVTQMAMTGMKNKRSVA / NAEMREN / QQYHRLPLI: 1.18 (6 of 6 replicates).
TLYGLSNSMSINKNSVA / EMTTREK / QQYDRLPLF: -0.03 (6 of 6 replicates).
KISQSYLGLSRNVNAVA / NGSTRES / QQYHRLPLS: -0.17 (6 of 6 replicates).
KFNMEVGGQNTNKYAIA / AAHQLEY / QTYHRLPLS: 1.39 (6 of 6 replicates).
MISQLYNMGQFAINSVA / QASIRNQ / QQYDRLPLM: 1.09 (6 of 6 replicates).
MMSQVTGLGQRHRNNVA / QTSEREA / QQYDRLPLI: 1.98 (6 of 6 replicates).
KLGYTSGGEVNGQHNIA / EMDQLTF / QQYSHLPLS: 0.59 (6 of 6 replicates).
MMSQVTQSGMRHRNNVA / QTSMREP / QQYDRLPLI: 1.17 (6 of 6 replicates).
RMDVIGQESVRQYNAVA / NGETRTA / QHYNRLPLE: 1.25 (6 of 6 replicates).

Extract of 5 entries:

For ALELEEMQMMKDINSIA / NTEYKTR / QQYVRLPIS, the assay gave 1.30 (6 of 6 replicates).
For KFGQMVLTGSYVSNSVA / QSSTREN / QQYHRLPLS, the assay gave -0.07 (6 of 6 replicates).
For MISQLYNMGQFAINSVA / QAEIRNE / QQYDRLPLI, the assay gave 0.97 (6 of 6 replicates).
For KMHTLMYTANIGENSVA / DANLHVD / QQYFRLPIS, the assay gave 1.22 (6 of 6 replicates).
For TIDDEMPNHGFHWNSIA / GVATVLQ / QQYDRLPLS, the assay gave 2.58 (5 of 6 replicates).